Source: patent US10730863B2, “Bridged bicyclic compounds as farnesoid X receptor modulators” (BRISTOL-MYERS SQUIBB COMPANY, priority 2017, dated 2020)

The chains behind the UniProt entries cited, without tags or fusion partners. Residues count along the entry.
UniProt Q96RI1, 262-486 limits assumed: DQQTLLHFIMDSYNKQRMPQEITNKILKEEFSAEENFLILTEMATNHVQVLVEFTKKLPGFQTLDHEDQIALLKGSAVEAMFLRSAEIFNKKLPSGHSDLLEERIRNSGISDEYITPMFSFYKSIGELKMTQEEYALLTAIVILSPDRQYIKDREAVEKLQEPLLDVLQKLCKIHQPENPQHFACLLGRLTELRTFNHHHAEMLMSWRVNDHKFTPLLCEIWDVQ

The molecules below were run against FXR (Homo sapiens (Human), UniProt Q96RI1) (assay: FXR EC50 (FXR agonist activity reported with each example)). Settings: read-out: FXR EC50.
Assay type: cell-based

Row | EC50 [nM] | SMILES
1 | 2000 | O=C(O)c1ccc(-c2noc(C34CCC(COCc5c(-c6c(Cl)cccc6Cl)noc5C5CC5)(CC3)C4)n2)cc1
2 | 710 | O=C(O)c1ccc(-c2noc(C34CCC(OCc5c(-c6c(Cl)cccc6Cl)noc5C5CC5)(CC3)C4)n2)cc1

More lines, now with the values behind:

Row | SMILES | EC50 [nM]
3 | O=C(O)c1cccc(-c2noc(C34CCC(COCc5c(-c6c(Cl)cccc6Cl)noc5C5CC5)(CC3)C4)n2)c1 | 310
4 | O=C(O)c1cccc(-c2noc(C34CCC(C=Cc5c(-c6c(Cl)cccc6Cl)noc5C5CC5)(CC3)C4)n2)c1 | 5100
5 | O=C(O)c1cccc(/C=C/C23CCC(OCc4c(-c5ccccc5C(F)(F)F)noc4C4CC4)(CC2)CC3)c1 | 470
